{
  "sequences": {"note": "The chains behind the UniProt entries cited, without tags or fusion partners. Where a name states a change or a piece, a line headed by the entry shows the natural chain unless it says otherwise.", "UniProt P11229": "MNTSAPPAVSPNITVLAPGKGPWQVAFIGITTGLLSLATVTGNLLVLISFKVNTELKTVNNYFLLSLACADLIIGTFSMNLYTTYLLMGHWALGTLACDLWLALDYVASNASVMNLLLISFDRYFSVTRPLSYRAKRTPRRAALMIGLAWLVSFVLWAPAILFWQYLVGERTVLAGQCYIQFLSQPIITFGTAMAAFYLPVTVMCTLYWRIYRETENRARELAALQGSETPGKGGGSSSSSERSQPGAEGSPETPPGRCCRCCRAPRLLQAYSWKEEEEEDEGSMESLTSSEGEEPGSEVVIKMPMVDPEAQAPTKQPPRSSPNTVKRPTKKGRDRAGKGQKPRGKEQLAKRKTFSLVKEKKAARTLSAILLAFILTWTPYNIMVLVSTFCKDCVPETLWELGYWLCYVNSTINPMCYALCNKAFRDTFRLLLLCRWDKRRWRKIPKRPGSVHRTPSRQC"},
  "source": "paper PMC10138654",
  "about": "“Structural Insights into M1 Muscarinic Acetylcholine Receptor Signaling Bias between Gαq and β-Arrestin through BRET Assays and Molecular Docking” (International Journal of Molecular Sciences, 2023)",
  "key": {"M1mAChR [1]": {"target": "T1, M1mAChR (Homo sapiens, UniProt P11229)"}, "M1mAChR [2]": {"target": "T1, M1mAChR", "remark": "listed apart in the source"}, "M1mAChR [3]": {"target": "T1, M1mAChR", "conditions": "Scopolamine 100 μM; agonist 1 μM (Pilocarpine 300 μM); mean response 100 s before vs after antagonist"}, "M1mAChR [4]": {"target": "T1, M1mAChR", "remark": "listed apart in the source"}, "M1mAChR [5]": {"target": "T1, M1mAChR", "conditions": "calcium assay and commercial β-arrestin recruitment method"}, "M1mAChR [6]": {"target": "T1, M1mAChR", "remark": "listed apart in the source"}, "M1mAChR [7]": {"target": "T1, M1mAChR", "remark": "listed apart in the source"}},
  "data": [
    {"smiles": "CCCCCCOc1nsnc1C1=CCCN(C)C1", "note": "[Xanomeline]", "values": [
      {"measurement": "β-Arrestin (BRET) (Δlog (τ/KA))", "setting": "M1mAChR [1]", "result": "0.94 ± 0.030"},
      {"measurement": "Gαq (BRET) (Δlog (τ/KA))", "setting": "M1mAChR [2]", "result": "1.58 ± 0.050"},
      {"measurement": "decrease of agonist-induced Gαq BRET response by Scopolamine", "setting": "M1mAChR [3]", "result": "approximately 49%"},
      {"measurement": "β-Arrestin (FRET) (Δlog (τ/KA))", "setting": "M1mAChR [4]", "result": "−0.29 ± 0.020"},
      {"measurement": "signaling bias by commercial methods", "setting": "M1mAChR [5]", "result": "predominantly biased towards Gαq"},
      {"measurement": "Gαq (Fluo4-AM) (Δlog (τ/KA))", "setting": "M1mAChR [6]", "result": "0.32 ± 0.002"},
      {"measurement": "bias factor (Gαq vs β-arrestin2)", "setting": "M1mAChR [7]", "result": 4.5},
      {"measurement": "∆∆RAi (Gαq − β-arrestin2)", "setting": "M1mAChR [7]", "result": 0.6}
    ]}
  ]
}
